The list shows a part of the results, in another mix than the full data. Calls of active or inactive are those of the source.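 The calls were made as follows: active = at least 50% inhibition at 5 µM, scaled per plate between neutral and stimulator controls; inactive = the rest.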
Assay: inhibitors of PAF-induced NF-kB signaling, primary screen, cell-based, GFP fluorescence, uHTS (AID 588850);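 also: PAF is a Pseudomonas aeruginosa culture filtrate used as stimulus; plate controls were PAF-stimulated DMSO wells for no effect and unstimulated DMSO wells for full effect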
Conditions: KKLEB NF-kB-GFP reporter, GFP fluorescence overnight, at 5 µM, stronger effect = higher value
With `CC(C)NC(=O)NP(=O)(Oc1ccccc1)Oc1ccccc1` the inhibition was inactive: -3.9%.
For `O=C(OC1CN2CCC1CC2)c1cccc2[nH]cnc12` (stereo unspecified), the inhibition was inactive: 9.8%.
With `CCN(CC)C(=S)SC(NC=O)C(Cl)(Cl)Cl` (stereo unspecified) the inhibition was inactive: 9%.
In the case of `COC(=O)C1(C)COP(=O)(N2CCCCCC2)OC1` (stereo unspecified), the inhibition is reported as inactive: -10.3%.
In the case of `CC(C)c1ccc(OP(=O)(Nc2ccccn2)Oc2ccccc2F)cc1` (stereo unspecified), the inhibition is reported as inactive: -4.7%.
In the case of `ClCCSc1nnc(-c2cccnc2)o1`, the inhibition is reported as inactive: -23.2%.
With `Cc1cc(SC(NC(=O)c2ccccc2)C(Cl)(Cl)Cl)nc(C(C)C)n1` (stereo unspecified) the inhibition was inactive: -6%.
For `CCCCOc1ccc(C(=O)NCC2(N3CCCCC3)CCCCC2)cc1OC`, the inhibition was inactive: -14.2%.
With `COP(=O)(OC)N1CC1c1ccccc1` (stereo unspecified) the inhibition was inactive: 20.6%.
In the case of `CC1CCNP(=O)(N(CCCl)CCCl)O1` (stereo unspecified), the inhibition is reported as inactive: -24.7%.
In the case of `CCOC(=O)Nc1ccc([As](=O)(O)O)c(O)c1`, the inhibition is reported as inactive: -19.2%.
For `O=C(O)C(O)c1ccc(N(CCCl)CCCl)cc1` (stereo unspecified), the inhibition was inactive: 3.6%.
For `O=[N+]([O-])c1ccc(Nc2ccc(Oc3ccc([N+](=O)[O-])cc3[N+](=O)[O-])cc2)c([N+](=O)[O-])c1`, the inhibition was inactive: 8.6%.
In the case of `O=P(Nc1ccccn1)(c1cccc2ccccc12)c1cccc2ccccc12`, the inhibition is reported as inactive: 9.8%.
With `Cc1cc(SC(NC=O)C(Cl)(Cl)Cl)ncn1` (stereo unspecified) the inhibition was inactive: 12.2%.
For `CCOC(=O)Nc1cccc([As](=O)(O)O)c1`, the inhibition was inactive: -13.5%.
For `O=C(Nc1ccncc1[N+](=O)[O-])c1ccc([N+](=O)[O-])cc1[N+](=O)[O-]`, the inhibition was inactive: 30.6%.
With `O=C(COc1ccccc1)OC1CN2CCC1CC2` (stereo unspecified) the inhibition was inactive: -10%.
For `O=C(O)C(=O)c1ccc(N(CCCl)CCCl)cc1`, the inhibition was inactive: -7.3%.
For `COC(=O)C1(C)COP(=O)(N2CCCC2)OC1` (stereo unspecified), the inhibition was inactive: -4.2%.
For `COP1(=S)c2c(C)nn(CCC#N)c2N=C(c2ccc(F)cc2)N1C` (stereo unspecified), the inhibition was inactive: 15.9%.
With `CCC(C)N(CC(C)C)C(=S)SC(NC(C)=O)C(Cl)(Cl)Cl` (stereo unspecified) the inhibition was inactive: -11.4%.
For `CCOC(=O)c1ccc(NC(=O)C(C)(CCl)SC)cc1` (stereo unspecified), the inhibition was inactive: 17.9%.
For `CSc1ccc(Nc2c([N+](=O)[O-])cc([N+](=O)[O-])cc2[N+](=O)[O-])cc1`, the inhibition was active: 58.6%.
In the case of `O=C(OC1CN2CCC1CC2)c1cccc([N+](=O)[O-])c1` (stereo unspecified), the inhibition is reported as inactive: -7.4%.
In the case of `O=[N+]([O-])c1cccc2n[nH]nc12`, the inhibition is reported as inactive: -8.4%.
With `CC(=O)N1C2C3N(C(C)=O)C1C1N(C(C)=O)C(C(N1C(C)=O)N3C(C)=O)N2C(C)=O` the inhibition was inactive: 0.6%.
For `CCc1nc2c(n1)c1c(non1O)c1c2no[n+]1[O-]`, the inhibition was inactive: 41.6%.
In the case of `O=[N+]([O-])c1cc([N+](=O)[O-])c(CCNc2ccccc2)c([N+](=O)[O-])c1`, the inhibition is reported as inactive: -16%.
With `Cc1ccc(NP(=O)(Oc2ccccc2)Oc2ccccc2)nc1` the inhibition was inactive: 2.8%.
With `COc1ccc(C2=NCC(CBr)S2)cc1` (stereo unspecified) the inhibition was inactive: -3.2%.
In the case of `CN(C)C(=O)OCCc1n(C)cc[n+]1C`, the inhibition is reported as inactive: 14.3%.
In the case of `CC(C)c1nc(Nc2ccccc2)n(P(=O)(N(C)C)N(C)C)n1`, the inhibition is reported as inactive: -10.5%.
In the case of `CC(C)=N/N=C(\N)N[N+](=O)[O-]`, the inhibition is reported as inactive: -9.8%.
For `CC1CCN(C(=O)Oc2c(Cl)cc(Cl)c3cccnc23)CC1`, the inhibition was inactive: -1.7%.
In the case of `c1cc(-c2nn[nH]n2)ccc1-c1nn[nH]n1`, the inhibition is reported as inactive: -18.7%.
With `C[N+]1=C2C=CC=CC=C2SC12C([N+](=O)[O-])=CC([N+](=O)[O-])=C[C-]2[N+](=O)[O-]` (stereo unspecified) the inhibition was inactive: -17.9%.
In the case of `Nc1ccc([As](=O)(O)c2ccc(N)cc2)cc1`, the inhibition is reported as inactive: 12.9%.
With `CCN(/C(=N/P(=O)(N1CCOCC1)N1CCOCC1)N1CCOCC1)c1ccc(OC)cc1` the inhibition was inactive: 2.4%.
In the case of `O=C(Nc1cc([As](=O)(O)O)ccc1O)c1ccccc1`, the inhibition is reported as inactive: -16.3%.
With `O=P1(N(CCCl)CCCl)OCCCS1` (stereo unspecified) the inhibition was inactive: -3.1%.
In the case of `COC(=O)C1(C)COP(=O)(Nc2ccccc2)OC1` (stereo unspecified), the inhibition is reported as inactive: 7.1%.
With `O=[N+]([O-])c1cccc(NC2=NCC(CBr)S2)c1` (stereo unspecified) the inhibition was inactive: 11.9%.
For `O=C(O)CNc1ccc([As](=O)(O)O)cc1`, the inhibition was inactive: -18.8%.
With `CC(C)(C)C(=O)NC(Sc1ccncn1)C(Cl)(Cl)Cl` (stereo unspecified) the inhibition was inactive: -8.1%.
In the case of `O=[N+]([O-])c1ncn(CCn2ncnc2[N+](=O)[O-])n1`, the inhibition is reported as inactive: -0.6%.
For `Cc1ccc(NP(=O)(Oc2ccccc2F)Oc2ccccc2F)nc1`, the inhibition was inactive: 7%.
In the case of `CN(C(=O)Cc1ccc(Cl)c(Cl)c1)[C@H]1CCCC[C@@H]1N1CCCC1`, the inhibition is reported as inactive: 6.2%.
In the case of `Cc1cc(SC(NC(=O)c2ccc(F)cc2)C(Cl)(Cl)Cl)ncn1` (stereo unspecified), the inhibition is reported as inactive: -0.5%.
In the case of `CCOP(=O)(Nc1ccccc1)OCC`, the inhibition is reported as inactive: -4.1%.
For `CCCC1OP(N)(=O)OCC1CC` (stereo unspecified), the inhibition was inactive: -6.9%.
In the case of `CC(=O)Nc1ccc([As](=O)(O)O)cc1`, the inhibition is reported as inactive: -18.7%.
In the case of `O=C(O)c1ccccc1[As](=O)(O)O`, the inhibition is reported as inactive: 11.9%.
In the case of `O=P(Nc1nc2ccc(Cl)cc2s1)(c1ccccc1)c1ccccc1`, the inhibition is reported as inactive: -19.3%.
In the case of `CN(C)P(=O)(N(C)C)n1c(Nc2ccccc2)nnc1-c1ccccc1`, the inhibition is reported as inactive: -6.9%.
With `CCN(N=Nc1nonc1N)c1nonc1N` the inhibition was inactive: 4.4%.
For `Nc1cccc2ccc([As](=O)(O)O)cc12`, the inhibition was inactive: 11.1%.
For `Cc1ccc(OP(=O)(Nc2nccs2)Oc2ccc(C)cc2)cc1`, the inhibition was inactive: 9.1%.
For `COc1ccccc1OP(=O)(Nc1ccc(C)cn1)Oc1ccccc1OC`, the inhibition was inactive: 10.4%.
For `CN1CCCC(OC(=O)C(c2ccccc2)c2ccccc2)C1` (stereo unspecified), the inhibition was inactive: 6.4%.
In the case of `Clc1ccc(Cl)c(NC2=NCC(CBr)S2)c1` (stereo unspecified), the inhibition is reported as inactive: 11.6%.
In the case of `NC(=O)c1cc([N+](=O)[O-])cc([N+](=O)[O-])c1N`, the inhibition is reported as inactive: -26.5%.
With `Cc1ccc(N/C(=N/P(=O)(N2CCOCC2)N2CCOCC2)N2CCOCC2)cc1` the inhibition was inactive: -2.2%.
With `CN(C(=O)Cc1ccc(Cl)c(Cl)c1)[C@H]1CCCC[C@H]1N1CCCC1` the inhibition was inactive: 1.2%.
For `O=[N+]([O-])C1C(O)C(O)C([N+](=O)[O-])C(O)C1O` (stereo unspecified), the inhibition was inactive: -30.7%.
In the case of `Nc1cc(N)c2nonc2c1[N+](=O)[O-]`, the inhibition is reported as inactive: -17.1%.
For `CC(C)CC(=O)NC(Sc1ccc(Cl)cc1)C(Cl)(Cl)Cl` (stereo unspecified), the inhibition was inactive: -1%.
For `O=C(NC(Sc1ccncn1)C(Cl)(Cl)Cl)c1ccccc1` (stereo unspecified), the inhibition was inactive: 5.3%.
With `Oc1ccccc1CNc1ccccn1` the inhibition was inactive: -6.3%.
With `CCc1cc(O)c([N+](=O)[O-])c(C)c1[N+](=O)[O-]` the inhibition was inactive: 3.7%.
With `CC(C)(C)C(=O)NC(Sc1ccccc1)C(Cl)(Cl)Cl` (stereo unspecified) the inhibition was inactive: 12.1%.
For `CCOc1ccc(C2=NCC(CBr)S2)cc1` (stereo unspecified), the inhibition was inactive: 6.8%.
In the case of `O=P1(Nc2nc3ccc(Cl)cc3s2)COc2ccccc2O1` (stereo unspecified), the inhibition is reported as inactive: 15.6%.
With `CC(=O)Nc1ccc(Oc2c([N+](=O)[O-])cc([N+](=O)[O-])cc2[N+](=O)[O-])cc1` the inhibition was inactive: -0.5%.
With `CC(=O)Nc1ccc([As](=O)(O)O)c(O)c1` the inhibition was inactive: 6.3%.
In the case of `COC(=O)C1(C)COP(=O)(NCc2ccccc2)OC1` (stereo unspecified), the inhibition is reported as inactive: -4%.
In the case of `CC(=O)c1ccc(N2CC2c2ccncc2)cc1` (stereo unspecified), the inhibition is reported as inactive: -19.7%.
For `N#C/C(=C\c1ccc(N(CCBr)CCBr)cc1)C(N)=O`, the inhibition was inactive: 4.5%.
In the case of `C[C@H]1OP(=O)(Oc2ccccc2)C[C@@H]2O[C@@H]21` (stereo partly specified), the inhibition is reported as inactive: 6.6%.
For `C[C@@H]1C=CCP(=O)(Oc2ccccc2)O1` (stereo partly specified), the inhibition was inactive: 0.9%.
With `Cc1ccccc1CN(C)C(=O)COC(=O)C(O)(c1ccccc1)c1ccccc1` the inhibition was inactive: 8.3%.
For `O=P1(N(CCCl)CCCl)OCCC2CCCCN21` (stereo unspecified), the inhibition was inactive: -1.7%.
In the case of `CCNC(=S)/N=C(\N)N[N+](=O)[O-]`, the inhibition is reported as inactive: -16.3%.
For `O=C(NC1CCS(=O)(=O)C1)NP(=S)(Oc1ccccc1)Oc1ccccc1` (stereo unspecified), the inhibition was inactive: 3.2%.
With `Cc1ccc(NP(=O)(Oc2cccc(C)c2)Oc2cccc(C)c2)nc1` the inhibition was inactive: 2.7%.
With `c1ccc(-c2nn[nH]n2)c(-c2nn[nH]n2)c1` the inhibition was inactive: 6.8%.
With `O=c1c2cc([N+](=O)[O-])ccc2[nH]c2c([N+](=O)[O-])cc([N+](=O)[O-])cc12` the inhibition was active: 97%.
With `CN(C)C(=O)Oc1noc2ccccc12` the inhibition was inactive: -0.2%.
In the case of `CC(NC(=O)COC(=O)C(O)(c1ccccc1)c1ccccc1)c1ccccc1` (stereo unspecified), the inhibition is reported as inactive: 5.7%.
With `Cc1ccccc1OP(=O)(Nc1ccccn1)Oc1ccccc1C` the inhibition was inactive: -12.8%.
For `Cc1ccc(OP(=O)(Nc2ccccn2)Oc2ccc(C)cc2)cc1`, the inhibition was inactive: -14.3%.
For `CC(=O)NC(SC(=S)N(CC(C)C)CC(C)C)C(Cl)(Cl)Cl` (stereo unspecified), the inhibition was inactive: 7.6%.
With `COC(=O)c1cc2c(s1)N=C(c1ccccc1)N(C)P2(=O)N1CCOCC1` (stereo unspecified) the inhibition was inactive: -5.7%.
In the case of `CCC(=O)N1C2C3N(C(=O)CC)C1C1N(C(=O)CC)C(C(N1C(=O)CC)N3C(=O)CC)N2C(=O)CC`, the inhibition is reported as inactive: 10.3%.
With `O=C(OC1CN2CCC1CC2)c1ccccc1` (stereo unspecified) the inhibition was inactive: -1.7%.
For `C[C@H]1OP(=O)(Oc2ccccc2)[C@H](O)[C@H](O)[C@H]1N=[N+]=[N-]` (stereo partly specified), the inhibition was inactive: -2%.
For `O=P(Nc1nc2ccccc2s1)(c1ccccc1)c1ccccc1`, the inhibition was inactive: -2.1%.
In the case of `COc1ccc(N)c([N+](=O)[O-])c1[N+](=O)[O-]`, the inhibition is reported as inactive: 12.1%.
With `Nc1ccc(CCCCOc2ccccc2)cc1` the inhibition was inactive: 5.4%.
With `O=P(Nc1ccccn1)(c1ccc(Br)cc1)c1ccc(Br)cc1` the inhibition was inactive: -12.9%.
In the case of `CN(C)C1(CNC(=O)c2ccc(Cl)c(S(N)(=O)=O)c2)CCCCC1`, the inhibition is reported as inactive: 6.1%.
For `C(Cc1nn[nH]n1)Cc1nn[nH]n1`, the inhibition was inactive: 6%.
With `Nc1ccc([As](=O)(O)c2ccc([N+](=O)[O-])cc2)cc1` the inhibition was inactive: 12.6%.
In the case of `O=C(OC1CN2CCC1CC2)c1cccc(Cl)c1` (stereo unspecified), the inhibition is reported as inactive: 0%.
For `O=[N+]([O-])c1ccc(O)c(/C=N/Nc2ccc([N+](=O)[O-])cc2[N+](=O)[O-])c1`, the inhibition was active: 58.8%.
With `O=[N+]([O-])c1ncn(CCn2cnc([N+](=O)[O-])n2)n1` the inhibition was inactive: -2.8%.
For `CC(=O)NC(SC(=S)N(C)C)C(Cl)(Cl)Cl` (stereo unspecified), the inhibition was inactive: 7.2%.
In the case of `O=[As](O)(c1ccccc1)c1ccc(O)cc1`, the inhibition is reported as inactive: 5.5%.
In the case of `c1nnnn1CCn1cnnn1`, the inhibition is reported as inactive: 0.2%.
In the case of `CC(C)C(=O)NC(Sc1ccccc1)C(Cl)(Cl)Cl` (stereo unspecified), the inhibition is reported as inactive: 3.8%.
In the case of `O=P(Nc1nccs1)(c1ccccc1)c1ccccc1`, the inhibition is reported as inactive: 8%.

— PubChem BioAssay AID588850 (Sanford-Burnham Center for Chemical Genomics, 2011)
